Source: ChEMBL document CHEMBL1158158, “Discovery of a potent and selective c-Kit inhibitor for the treatment of inflammatory diseases” (Bioorg Med Chem Lett, 2008)

Protein sequences, listed by entry. Tags and fused reporters are not part of them.
UniProt P00519, whole entry: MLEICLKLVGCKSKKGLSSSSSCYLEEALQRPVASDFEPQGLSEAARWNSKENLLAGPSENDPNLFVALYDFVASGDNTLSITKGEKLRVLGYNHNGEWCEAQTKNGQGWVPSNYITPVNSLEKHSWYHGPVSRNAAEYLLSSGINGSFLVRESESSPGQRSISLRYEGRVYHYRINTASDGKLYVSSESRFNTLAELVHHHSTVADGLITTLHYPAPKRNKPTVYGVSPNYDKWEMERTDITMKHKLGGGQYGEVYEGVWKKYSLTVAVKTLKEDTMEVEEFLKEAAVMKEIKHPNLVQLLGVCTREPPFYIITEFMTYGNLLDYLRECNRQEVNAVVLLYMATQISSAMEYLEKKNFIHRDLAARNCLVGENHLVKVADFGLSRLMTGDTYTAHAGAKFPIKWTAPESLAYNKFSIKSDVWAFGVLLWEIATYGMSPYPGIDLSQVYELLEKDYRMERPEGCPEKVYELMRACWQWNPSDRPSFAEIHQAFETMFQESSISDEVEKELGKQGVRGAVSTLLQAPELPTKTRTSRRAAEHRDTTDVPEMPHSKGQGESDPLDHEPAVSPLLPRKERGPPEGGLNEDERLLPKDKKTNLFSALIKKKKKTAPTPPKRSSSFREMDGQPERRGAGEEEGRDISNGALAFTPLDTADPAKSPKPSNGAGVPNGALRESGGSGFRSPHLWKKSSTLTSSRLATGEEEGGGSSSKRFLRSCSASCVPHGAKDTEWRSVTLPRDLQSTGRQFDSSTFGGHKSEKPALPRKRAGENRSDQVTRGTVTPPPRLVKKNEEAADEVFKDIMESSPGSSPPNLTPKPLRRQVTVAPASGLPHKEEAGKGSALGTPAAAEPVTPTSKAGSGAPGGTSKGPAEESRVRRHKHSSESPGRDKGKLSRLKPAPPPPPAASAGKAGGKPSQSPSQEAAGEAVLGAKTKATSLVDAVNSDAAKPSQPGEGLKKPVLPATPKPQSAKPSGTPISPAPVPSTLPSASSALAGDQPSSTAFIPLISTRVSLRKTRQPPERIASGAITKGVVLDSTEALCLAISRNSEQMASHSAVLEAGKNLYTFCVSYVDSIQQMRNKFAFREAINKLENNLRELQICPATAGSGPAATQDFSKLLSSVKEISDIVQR

Target: Tyrosine-protein kinase ABL1 (Homo sapiens, UniProt P00519)

Compound: Cc1ccc(NC(=O)c2cccc(C(F)(F)F)c2)cc1C(=O)Nc1cncnc1
- IC50: 0.24 µM
